Reference: patent US5298622A, “Spiroindane opiate analogs” (priority 1993, dated 1994)

By UniProt entry, the sequences of proteins in these tests, tags left out. Where a name states a change or a piece, a line headed by the entry shows the natural chain unless it says otherwise. Residues count along the entry.
UniProt P32300, whole entry: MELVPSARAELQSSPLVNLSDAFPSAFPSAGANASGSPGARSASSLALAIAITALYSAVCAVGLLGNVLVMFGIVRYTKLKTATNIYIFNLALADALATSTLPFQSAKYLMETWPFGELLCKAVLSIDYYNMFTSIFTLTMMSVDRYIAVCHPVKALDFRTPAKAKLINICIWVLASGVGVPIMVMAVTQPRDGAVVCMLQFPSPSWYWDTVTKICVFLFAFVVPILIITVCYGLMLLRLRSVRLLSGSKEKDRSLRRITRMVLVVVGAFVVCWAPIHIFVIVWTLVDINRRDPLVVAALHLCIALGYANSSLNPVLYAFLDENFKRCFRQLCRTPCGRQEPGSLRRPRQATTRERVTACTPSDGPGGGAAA
UniProt P41144: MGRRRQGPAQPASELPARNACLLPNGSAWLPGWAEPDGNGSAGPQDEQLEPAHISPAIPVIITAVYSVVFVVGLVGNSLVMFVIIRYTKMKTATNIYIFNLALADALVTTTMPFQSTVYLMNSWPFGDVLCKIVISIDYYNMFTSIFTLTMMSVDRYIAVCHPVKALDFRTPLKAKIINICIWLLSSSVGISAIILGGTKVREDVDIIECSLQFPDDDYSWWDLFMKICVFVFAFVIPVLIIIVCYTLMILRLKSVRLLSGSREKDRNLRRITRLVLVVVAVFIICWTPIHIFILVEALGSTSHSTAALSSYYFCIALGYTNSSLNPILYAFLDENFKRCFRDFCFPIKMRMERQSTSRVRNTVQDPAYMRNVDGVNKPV
UniProt A0ACM8Q262, 1-400: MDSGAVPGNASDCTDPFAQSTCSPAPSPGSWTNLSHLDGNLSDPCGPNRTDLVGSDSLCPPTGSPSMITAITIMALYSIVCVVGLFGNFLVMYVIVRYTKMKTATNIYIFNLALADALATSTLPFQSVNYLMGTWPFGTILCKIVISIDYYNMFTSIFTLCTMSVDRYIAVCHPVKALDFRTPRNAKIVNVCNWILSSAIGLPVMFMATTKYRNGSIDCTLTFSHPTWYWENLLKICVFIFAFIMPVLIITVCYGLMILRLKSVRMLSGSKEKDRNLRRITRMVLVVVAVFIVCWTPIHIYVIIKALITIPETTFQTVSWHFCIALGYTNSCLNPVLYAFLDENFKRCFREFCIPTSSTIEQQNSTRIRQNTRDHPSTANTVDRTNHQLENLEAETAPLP

What was measured:
delta opioid receptor = target: T1, delta opioid receptor (Mus musculus, UniProt P32300); assay: MVD assay, antagonism of DADLE (delta); format: cell-based; details: for MVD Antagonism IC50 Ratio (DADLE) / Kb: antagonist 100 nM, 15 min; for MVD Antagonism IC50 Ratio (DADLE): agonist DADLE (delta); for Kb: Ke=[antagonist]/(IC50 ratio-1)
T1 construct: Both vasa deferentia were dissected out of mice; from tissue; host or cells: mouse vas deferens
Description: 2. Mouse Vas (MVD). This assay was performed according to the description by G. Henderson et al., Brit. J. Pharmacol., 46, 764 (1972). Both vasa deferentia were dissected out of mice and mounted singly through two platinum ring electrodes in a 10 ml organ bath. The bath contained Krebs bicarbonate solution that was continuously bubbled with 95% O2 and 5% CO2. The organ bath was maintained at 37° C. The tissue was attached to an isometric transducer and stimulated transmurally with rectangular pulses ([…], 1 ms duration, supramaximal voltage). Drugs were added cumulatively to the bath in 10- to 50-μl amounts and washed out after noting their maximum effect.
(§1) Concentration-response curves were obtained in the absence (control) and the presence of the antagonist are expressed as IC50 values. The IC50 ratio represents the IC50 in the presence of the antagonist divided by the control IC50 value in the same tissue. Therefore, a high IC50 ratio represents a correspondingly high degree of antagonism at a particular receptor. This IC50 ratio was employed to calculate the Ke value using the equation Ke=[antagonist]/(IC50 ratio-1). Therefore, a low Ke represents a correspondingly high degree of binding at a particular receptor.

kappa opioid receptor = target: T2, kappa opioid receptor (Cavia porcellus, UniProt P41144); assay: GPI assay, antagonism of ethylketazocine (EK, kappa); format: cell-based, guinea pig; details: antagonist 100 nM, 15 min; agonist ethylketazocine (kappa)
T2 construct: a strip of longitudinal muscle with the myenteric plexus attached was prepared; from tissue; host or cells: guinea pig ileum, longitudinal muscle strip with myenteric plexus
Description: (§2) 1. Guinea Pig Ileal Longitudinal Muscle (GPI). Ilea from guinea pigs were taken approximately 10 cm from the ileocecal junction, and a strip of longitudinal muscle with the myenteric plexus attached was prepared by the method of H. B. Rang et al., Brit. J. Pharmacol., 22, 356 (1964). A 1 cm portion of this strip was then mounted between two platinum electrodes placed in a 10 ml organ bath and connected to an isometric transducer; contractions were recorded on a polygraph. Contractions of the ileal strip were initiated by supramaximal rectangular pulses in all preparations (80 V of 0.5 ms duration at a frequency of 0.1 Hz). Krebs bicarbonate solution containing 1.25 μM chlorpheniramine maleate was the bathing solution and was continuously bubbled with 95% O2 and 5% CO2. The organ bath was maintained at 36°-37° C. The longitudinal muscle strip was allowed to equilibrate with continuous stimulation for a minimum of 90 min. Cumulative concentration-response curves were determined after drugs were added to the bath in 10- to 50-μl amounts and washed out with two 10 ml portions of buffer after noting their maximum effects.
as §1

mu opioid receptor = target: T3, mu opioid receptor (Cavia porcellus, UniProt A0ACM8Q262); assay: GPI assay, antagonism of morphine (mu); format: cell-based, guinea pig; details: antagonist 100 nM, 15 min; agonist morphine (mu)
T3 construct: antagonism of morphine
Description: as §2, §1

Substance	MVD Antagonism IC50 Ratio (DADLE) (delta opioid receptor)	Kb (delta opioid receptor)	δ-antagonist activity (in words) (delta opioid receptor; δ-selective agonist)	GPI Antagonism IC50 Ratio (EK) (kappa opioid receptor)	GPI Antagonism IC50 Ratio (Morphine) (mu opioid receptor)
7-(4,-Methoxy-2,-spiroindano)naltrexone and 7-(7' -Methoxy-2'-spiroindano)-naltrexone [Compound 3b]	60	1.71 nM	moderate δ-antagonist activity	2.63	8.47
7-(4',5'-Benz-2'-spiroindano)naltrexone and 7-(6',7'-Benz-2'-spiroindano)naltrexone [Compound 3e]	25	4.17 nM		2.01	0.53
7-(5'-Methoxy-2'-spiroindano)naltrexone and 7-(6'-Methoxy-2'-spiroindano)naltrexone [Compound 3c]	14	7.81 nM		2.41	0.92
